# “And” between values parts separate entries of the source, which are not always exact repeats. Equal entries are not always repeated. This is a selection; strong and weak results do not stand in their true shares. Inconclusive results are not listed. For part of these data: Measured potencies and affinities stand elsewhere. The source made the active and inactive calls. Unless noted, the call rests on the fitted dose curve; in most records, active means well fitted curve in the direction sought with a large enough effect; inconclusive means small, poorly fitted or top-dose-only effect, or another doubt; inactive means no such curve, though single readings can be large; an effect the other way counts as inactive or inconclusive.
# By UniProt entry, the sequences of proteins in these tests, tags left out.
# UniProt P01375, whole entry: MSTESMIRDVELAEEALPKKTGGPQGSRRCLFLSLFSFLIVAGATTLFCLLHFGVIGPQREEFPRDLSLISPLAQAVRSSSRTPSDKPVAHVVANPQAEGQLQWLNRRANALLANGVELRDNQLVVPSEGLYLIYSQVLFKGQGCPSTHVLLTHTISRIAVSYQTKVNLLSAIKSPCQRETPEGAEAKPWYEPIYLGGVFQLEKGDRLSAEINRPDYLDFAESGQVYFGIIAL
# UniProt P51449, whole entry: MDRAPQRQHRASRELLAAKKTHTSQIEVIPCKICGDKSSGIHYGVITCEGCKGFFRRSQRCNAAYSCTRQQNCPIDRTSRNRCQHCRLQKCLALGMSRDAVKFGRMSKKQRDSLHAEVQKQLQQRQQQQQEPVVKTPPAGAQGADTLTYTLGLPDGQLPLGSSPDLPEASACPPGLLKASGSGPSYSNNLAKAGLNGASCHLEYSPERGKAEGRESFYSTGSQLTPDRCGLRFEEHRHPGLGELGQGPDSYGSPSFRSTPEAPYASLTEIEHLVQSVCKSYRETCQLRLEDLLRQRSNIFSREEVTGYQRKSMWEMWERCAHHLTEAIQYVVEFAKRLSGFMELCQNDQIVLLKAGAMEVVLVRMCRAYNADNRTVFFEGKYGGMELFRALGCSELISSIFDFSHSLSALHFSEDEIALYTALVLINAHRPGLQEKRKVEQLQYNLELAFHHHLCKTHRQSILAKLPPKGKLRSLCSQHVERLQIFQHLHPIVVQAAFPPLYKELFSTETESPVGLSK
# UniProt Q07869, whole entry: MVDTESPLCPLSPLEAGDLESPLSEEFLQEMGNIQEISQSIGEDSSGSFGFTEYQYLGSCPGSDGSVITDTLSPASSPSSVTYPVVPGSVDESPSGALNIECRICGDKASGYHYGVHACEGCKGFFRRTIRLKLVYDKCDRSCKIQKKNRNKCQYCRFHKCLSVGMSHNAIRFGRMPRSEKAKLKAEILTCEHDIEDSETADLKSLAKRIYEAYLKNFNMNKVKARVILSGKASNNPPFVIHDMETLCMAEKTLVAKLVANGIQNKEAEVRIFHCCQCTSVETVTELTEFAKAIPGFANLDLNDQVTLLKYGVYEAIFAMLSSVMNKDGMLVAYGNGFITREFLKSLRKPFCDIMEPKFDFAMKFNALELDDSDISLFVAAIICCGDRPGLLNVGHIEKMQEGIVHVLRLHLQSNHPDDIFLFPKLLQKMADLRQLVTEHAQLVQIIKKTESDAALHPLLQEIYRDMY
# What was measured:
# [1] = target: Tumor necrosis factor (Homo sapiens) (UniProt P01375); assay: qHTS assay to identify small molecules that stimulate Tumor Necrosis Factor-alpha (TNF-alpha) secretion (AID 651757; active means well fitted curve in the direction sought with a large enough effect in the signal ratio; the % refers to the signal ratio; further: 0% is about no effect); details: Human cells, HTRF 665/615 ratio; at 92.2 µM (top of the series)
# How it was run: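 THP-1 cells (3000/well) exposed to compounds 17 hrs at 37 C. Secreted TNF-alpha detected by HTRF with cryptate- and XL665-labeled anti-TNF-alpha antibodies after 3 hr at room temperature.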
# [2] = qHTS assay for environmental chemicals that activate the Aryl hydrocarbon Receptor (AhR) signaling pathway (AID 651777); details: 1A2-DRE human hepatoma cells, luciferase, 24 h; active compounds read high; further: % of control where 0% means no effect; nearly all actives have a fitted effect of over 15% in size
# How it was run: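 Quantitative HTS in stably transfected human liver-derived cells whose luciferase gene sits downstream of the CYP1A2 promoter and dioxin response element. After 24 hr exposure at 37 C, One-Glo luminescence was measured.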
# [3] = target: Nuclear receptor ROR-gamma (Homo sapiens) (UniProt P51449); assay: qHTS assay for small molecule antagonists of the retinoid-related orphan receptor gamma (ROR-gamma) signaling pathway (AID 651802); details: ROR-gamma antagonist cell reporter assay; series mostly up to 92.2 µM; further: nearly all actives have a fitted effect of over 60% in size; further: potency means the concentration at half of the fitted maximal effect
# [4] = qHTS assay for small molecule disruptors of the mitochondrial membrane potential - 1 hr assay (AID 651754; calls by dose curve; further: on the % scale 0 is the no-effect control and ±100 the full control effect; nearly all actives have a fitted effect of over 35% in size); details: HepG2 mitochondrial membrane potential, JC-1 ratio 590/535, 1 h; at 92.2 µM (top of the series)
# Description: (§1) National Center for Advancing Translational Sciences [NCATS]
# (§2) NIH Chemical Genomics Center [NCGC]
# (§3) National Institutes of Environmental Health Sciences [NIEHS]
# (§4) National Toxicology Program [NTP]
# Mitochondrial membrane potential (MMP), one of the parameters for mitochondrial function, is generated by mitochondrial electron transport chain that creates an electrochemical gradient by a series of redox reactions. This gradient drives the synthesis of ATP, a crucial molecule for various cellular processes. Measuring MMP in living cells is commonly used to assess the effect of chemicals on mitochondrial function. […] The dye accumulates in the mitochondria of healthy cells as aggregates, with red fluorescence. The mitochondrial potential collapses and the dye can no longer accumulate in the mitochondria and remains in the cytoplasm in monomers, with green fluorescence.
# 2,000 HepG2 cells in 5 uL/well were dispensed into black, clear-bottom 1536-well plates using a Multidrop Combi (Thermo Scientific) dispenser. The assay plates were incubated overnight at 37C to allow cells to attach to the wells, followed by the transfer of 23 nL compound or DMSO vehicle by a pin tool (Kalypsys). The plates were incubated for 1 hr at 37C and 5% CO2, followed by the addition of 5 uL of 2X Mito-MPS dye (BD Biosciences) into each well using Flying Reagent Dispenser (Aurora Discovery) and then following 30 min incubation at 37C. Fluorescence intensity (490nm excitation and 535nm emission for monomers; and 540nm excitation and 590nm emissions for aggregates) was measured using an Envision plate reader.
# [5] = qHTS assay for small molecule disruptors of the mitochondrial membrane potential - 5 hr assay (AID 651755; calls by dose curve; further: on the % scale 0 is the no-effect control and ±100 the full control effect; nearly all actives have a fitted effect of over 40% in size); details: JC-1-type ratio dye; at 92.2 µM (top of the series)
# [6] = qHTS assay to identify small molecules that stimulate interleukin-8 (IL-8) secretion (AID 651758; active means well fitted activation curve with a large enough effect in the signal ratio; the % refers to the signal ratio; further: potency means the concentration at half of the fitted maximal effect; on activation: 0% is about no effect); details: HTRF ratio (665/615); series mostly up to 92.2 µM
# How it was run: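 Secreted IL-8 measured by TR-FRET sandwich (cryptate and XL665 antibodies) from THP-1 cells exposed to compound overnight (16 hrs, 37 C).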
# [7] = target: Peroxisome proliferator-activated receptor alpha (Homo sapiens) (UniProt Q07869); assay: qHTS assay for small molecule agonists of the peroxisome proliferator-activated receptor alpha (PPARalpha) signaling pathway (AID 651778); details: PathHunter PPARalpha complementation, chemiluminescence, 6 h; active compounds read high; further: % of control where 0% means no effect
# Description: as §1, §2
# U.S. Environmental Protection Agency [EPA]
# as §3, §4
# The Peroxisome proliferator-activated receptors (PPARs) are lipid-activated transcription factors of the nuclear receptor superfamily with three distinct subtypes (alpha, garmma and beta/delta). All these subtypes heterodimerize with retinoid X receptor and have different physiological functions. PPARalpha is highly expressed in tissues with high rates of mitochondrial fatty acid oxidation, such as liver, heart, muscle, kidney and cells of the arterial wall. PPARalpha is a major regulator of lipid metabolism and energy homeostasis.
# A cell based assay was used to identify activators of PPARalpha. The assay detects binding of a ligand to PPARalpha leading to its activation, translocation and complementation thus forming a functional enzyme capable of hydrolyzing the substrate molecule and generating chemiluminescent signal.
# 2,000 cells in 6 uL/well were dispensed into white wall/solid bottom 1536-well plates using a Multidrop Combi (Thermo Scientific) dispenser. After incubation 37 C and 5% CO2 overnight, 23 nL compound or DMSO only were transferred by a pin tool. The plates were incubated for 6 hr at 37 C and 5% CO2. 3 ul PathHunter detection reagent (Discoverx) was then added to each well and following 60 min incubation at room temperature, chemiluminescence was quantified on a ViewLux CCD-based plate reader.
# [8] = qHTS assay for small molecule agonists of the antioxidant response element (ARE) signaling pathway measured by Nrf2-dependant transcriptional activity (AID 720636; active means well fitted curve in the direction sought with a large enough effect in the repeat runs; an effect the other way counts as inactive or inconclusive; further: % of control where 0% means no effect); details: ARE-luc HepG2, Nrf2 luciferase reporter, 16 h; at 92.4 µM (top of the series)
# How it was run: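 Quantitative HTS format in HepG2 cells stably expressing an ARE-luciferase reporter; 16 hr compound treatment at 37 C, luciferase signal detected with ONE-Glo.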
# [9] = qHTS assay for small molecule antagonists of the retinoid-related orphan receptor gamma (ROR-gamma) signaling pathway - cell viability counter screen (AID 720652; active means well fitted curve in the direction sought with a large enough effect in the repeat runs; an effect the other way counts as inactive or inconclusive;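 further: CHO reporter cells with doxycycline-induced ROR-gamma expression; compound exposure lasted 16 hr before ATP read; on the % scale 0 is the no-effect control and ±100 the full control effect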); details: RORgamma reporter cell line viability counter screen; at 92.2 µM (top of the series)
# [10] = qHTS for compounds that reverse cellular toxicity of Amyloid beta (A-beta) peptide in yeast: LOPAC Validation Assay (AID 720559); details: yeast expressing A-beta; at 46.1 µM (top of the series);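 further: plate controls were DMSO for no effect and equimolar ferric chloride plus clioquinol rescue for full effect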
# Description: The A-beta peptide is produced by the processing of the amyloid precursor protein (APP) by two proteases, beta and gamma secretases. […] A-beta42 is regarded as the most amyloidogenic form due to its hydrophobicity; however, precisely how A-beta42 induces neurotoxicity is unclear. To understand further this biology and its potential therapeutic implications for human neurodegenerative disease, a quantitative high-throughput screen for compounds that reverse the cellular toxicity of the A-beta peptide was developed.
# A yeast based screen was used because it recapitulates the salient feature of protein mis-folding disorder accurately. This cell-based phenotypic screen provides a significant, unbiased advantage by letting the compounds and models inform us which proteins or pathways are most relevant. The ideal chemical candidates would therefore have activity in both our primary yeast and secondary neuronal toxicity assays, as well as in mouse models. […] For this luminescence assay, inhibition of A-beta rescues the toxic effect in the yeast cell, resulting in increase of signals. […]
# Two and a half microliter / well of yeast growth medium were dispensed in a 1536 assay plate. […] After 48 hr, the absorbance signal at 600 nm was obtained using the PerkinElmer ViewLux plate reader to assess yeast growth. […]
SMILES,activation (TNF-alpha secretion) [1],activation [2],Potency [3],"ratio change, negative = depolarisation [4]","ratio change, negative = disruption [5]",Potency [6],max response [7],activation [8],"activity change, negative = cytotoxicity [9]","growth rescue, positive = activation [10]"
Cc1ccc([N+](=O)[O-])c([N+](=O)[O-])c1,inactive: 2.91%,inactive: 2.65% and inactive: 3.43%,inactive,–,–,–,–,–,–,–
CCOP(=O)(CC)OCC,inactive: -0.113%,inactive: 0.285%,inactive,inactive: -1.86%,inactive: -1.14%,inactive,inactive: -5.88%,inactive: -0.929%,inactive: -0.856%,–
CCC(C)(OO)OOC(C)(CC)OO (centres undefined),inactive: -0.146%,inactive: -0.147% and inactive: 1.34%,active: 29.8 µM,inactive: -1.56%,inactive: -0.416%,–,inactive: 0.629% and inactive: 0.393%,inactive: -0.0362%,inactive: 17.1%,–
N#[O+].[C-]#N.[C-]#N.[C-]#N.[C-]#N.[C-]#N.[Fe+2].[Na+].[Na+],–,–,–,–,–,–,–,–,–,inactive: -12%
Cc1c([N+](=O)[O-])cccc1[N+](=O)[O-],inactive: 0.0994%,inactive: -0.631% and inactive: 0.153%,–,inactive: -0.891%,inactive: 0.302%,inactive,inactive: -4.47% and inactive: -1.92%,inactive: 1.52% and inactive: 0.414%,inactive: 2.31%,–
Cc1cccc([N+](=O)[O-])c1[N+](=O)[O-],inactive: 2.39%,inactive: 0.444% and inactive: 6.58%,active: 42.2 µM,–,inactive: -0.854%,active: 66.8 µM,inactive: 0.411% and inactive: -0.396%,–,inactive: -5.4%,–
CN(N=O)C(=N)N[N+](=O)[O-],–,–,–,inactive: 1.02%,inactive: 0.296%,–,–,–,–,–
O=[N+]([O-])[O-].[NH4+],inactive: 0.471%,inactive: 2.01%,–,inactive: 0.513%,inactive: -3.81%,inactive,inactive: 5.46%,inactive: -1.73%,inactive: 4.71%,–
CCOP(=S)(CC)Oc1cc(Cl)c(Cl)cc1Cl (centres undefined),–,inactive: 10.2%,–,–,–,–,inactive: -0.255%,inactive: 0.145%,–,–
Cc1ccc([N+](=O)[O-])cc1[N+](=O)[O-],inactive: -0.063%,inactive: 1.41% and inactive: 1.24%,inactive,inactive: -12.5%,inactive: -5.34%,–,inactive: -2.32% and inactive: -0.547%,inactive: -0.002% and inactive: 1.32%,inactive: 7.94%,–
O=[N+]([O-])c1cccc([N+](=O)[O-])c1,inactive: 0.998%,inactive: 1.84% and inactive: 3.22%,inactive,inactive: 6.52%,inactive: 1.82%,–,inactive: 0.356% and inactive: -6.84%,inactive: -0.0482%,–,–
[NH4+].[O-][Cl+3]([O-])([O-])[O-],inactive: 0.0762%,inactive: -1.37%,–,–,–,–,inactive: 8.2%,inactive: -0.845%,inactive: 10.3%,–
